scFv variants of Ab-14 (heavy chain) against a SARS-CoV-2 spike peptide

Values reported by Li et al. 2023, doi:10.1038/s41467-023-39022-2 (FLAb copy).

Antigen: PDVDLGDISGINAS, a 14-residue peptide of the SARS-CoV-2 spike HR2 region.

Parent: Ab-14, a human scFv built as VH, a 15-residue (Gly4Ser)3 linker, VL. Only the CDRs of the heavy chain vary.
VH: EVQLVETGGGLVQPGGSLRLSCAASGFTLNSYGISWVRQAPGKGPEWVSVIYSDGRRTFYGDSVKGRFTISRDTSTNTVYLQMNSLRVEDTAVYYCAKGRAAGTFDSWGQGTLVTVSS
VL: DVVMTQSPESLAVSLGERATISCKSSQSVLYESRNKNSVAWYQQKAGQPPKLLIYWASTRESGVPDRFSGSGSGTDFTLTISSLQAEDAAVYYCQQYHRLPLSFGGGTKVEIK

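The parent was found by panning a naive human phage display library on the peptide. These sequences belong to a second round, designed from the earlier measurements on random variants of the parent. Their group label is 14H_GP_Gen (GP: Gaussian process model; Gen: genetic algorithm; a sequence that several methods proposed may carry one label only). In AlphaSeq, yeast of one mating type display the scFv and yeast of the other type display the target. Binding brings cells together so that they mate, and sequencing counts the barcode pairs among the diploids. Scores were corrected for input abundance and mapped to Kd with protein pairs of known affinity run in the same pool. Each pool was mated in six replicate cultures.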

Each variant is given by its three heavy chain CDRs, as the data file delimits them; those of the parent are GFTLNSYGIS, VIYSDGRRTFYGDSVK, GRAAGTFDS.
Values are log10 of the apparent Kd in nM; lower means stronger binding.
Where no diploid with the target was found in that replicate, the entry reads "n.d.": below detection, most likely a poor binder, though not proof of it.

| CDR-H1 | CDR-H2 | CDR-H3 | log10 Kd (nM) by replicate | empty controls |
|---|---|---|---|---|
| HFELNSYGIS | VIYSDGRRTFYGDSVK | GRTAGTFDS | n.d. / n.d. / n.d. / n.d. / n.d. / n.d. | 0/18 |
| GFDLNSYGIS | VIYSDGRRTFYTDSVK | GWAAGTFDS | -0.04 / 0.45 / 0.22 / 0.98 / -0.03 / 1.16 | 0/18 |
| GFDLNSYGIS | VIYSDGRRTFYVDKVK | GRTAGTFDS | n.d. / 3.20 / 0.17 / n.d. / 1.19 / 0.99 | 0/18 |
| SFDLNSYGIS | VIYSDGRRTFYKDSVK | GRTAGTFDS | 0.64 / 0.33 / -0.31 / -0.13 / -0.01 / 0.01 | 0/18 |
| KFDLNSYGIS | VIYSDGRRTFYADSVK | GKAAGTFDS | 1.41 / -0.02 / 0.47 / 0.56 / 0.63 / 0.61 | 0/18 |
| GFDLNSYGIS | VIYSDGRRTFYGDSVK | GEAAGTFDW | 1.27 / 1.57 / 0.74 / n.d. / 0.90 / 1.41 | 0/18 |
| GFQLNEYGIS | VIYSDGRRTFYGDSVK | GRTAGTFDR | 0.76 / 0.57 / 0.20 / 0.38 / 0.25 / 0.51 | 1/18 (3.66) |
| GFDLNSYGIS | VIYSDGRRTFYIDSVK | GNAAGTFDK | 0.52 / 0.60 / 0.55 / -0.13 / n.d. / n.d. | 0/18 |
| GFELNEYGIS | VIYSDGRRTMYGDSVK | GRTAGTFDS | -0.29 / -0.01 / -0.23 / -0.25 / -0.42 / -0.22 | 0/18 |
| GFELNEYGIS | VIYSDGRRTFYGDSVK | GNAAGTFDT | 0.84 / 0.64 / 0.65 / 0.74 / 0.41 / 0.68 | 1/18 (1.93) |
| GFWLNDYGIS | VIYSDGRRTFYGDSVK | GRNAGTFDS | n.d. / 1.80 / n.d. / 2.02 / 0.93 / 1.56 | 0/18 |
| GFDLNSYGIS | VIYSDGRRTFYDDMVK | GRTAGTFDS | 1.30 / 1.12 / 0.57 / 1.04 / 0.86 / 1.03 | 0/18 |
| GFELNSYGIS | VIYSDGRRTFYIDSVK | GKAAGTFDV | 0.52 / 0.97 / 1.45 / 0.32 / 1.30 / 2.27 | 0/18 |
| GFELNSYGIS | VIYADGRRTFYGDSVK | GKAAGTFDL | 0.08 / 0.22 / -0.40 / -0.16 / -0.31 / 0.03 | 1/18 (2.27) |
| GFSLNMYGIS | VIYSDGRRTFYGDSVK | GKTAGTFDS | 1.26 / 1.22 / 0.27 / 0.43 / 0.46 / 1.71 | 1/18 (1.44) |
| GFELNEYGIS | VIYSDGRRTFYGDHVK | GRTAGTFDS | 1.95 / 1.15 / n.d. / 1.55 / 1.05 / 1.67 | 0/18 |
| GFELNDYGIS | VIYSDGRRTFYGDSVK | GREAGTFDT | n.d. / -0.40 / -0.64 / -0.70 / 0.09 / -0.63 | 0/18 |
| GFELNEYGIS | VIYSDGRRTFYSDSVK | GQAAGTFDS | 0.28 / -0.35 / -0.36 / -0.27 / -0.12 / 0.27 | 0/18 |
| GFDLNSYGIS | VIYSDGRRTWYGDSVK | GRNAGTFDS | n.d. / 0.35 / 1.50 / 1.24 / 0.52 / 1.47 | 0/18 |
| GFHLNSYGIS | VIYSDGRRTFYADDVK | GNAAGTFDS | 1.49 / 1.25 / n.d. / 1.47 / 1.52 / 2.06 | 0/18 |
| GFKLNEYGIS | VIYSDGRRTFYGDSVK | GRQAGTFDS | 0.33 / 0.62 / 0.90 / 0.13 / -0.07 / 0.21 | 0/18 |
| GFELNSYGIS | VIYSDGKRTFYGDSVK | GRNAGTFDS | 0.43 / 0.45 / 0.23 / -0.06 / 0.30 / 0.49 | 1/18 (2.92) |
| GFELNEYGIS | VIYSDGRRTYYGDSVK | GRAAGTFDS | 0.87 / 0.62 / 0.82 / 0.60 / 0.64 / 0.64 | 0/18 |
| LFDLNSYGIS | VIYSDGRRTFYADSVK | GRTAGTFDS | 0.12 / 0.14 / -0.03 / -0.53 / -0.35 / -0.07 | 0/18 |
| GFNLNSYGIS | VIYSDGRRTFYGDSVK | GQTAGTFDL | 0.52 / 0.49 / 0.76 / 0.80 / 0.23 / 0.82 | 1/18 (2.25) |
| GFELNEYGIS | VIYSDGRRTFYGDSVK | GKAAGTFDK | 0.58 / 1.52 / n.d. / 0.81 / 0.93 / 0.46 | 0/18 |
| GFDLNSYGIS | VIYSDGRRTFYQDQVK | GEAAGTFDS | 1.35 / 0.52 / 0.67 / 0.75 / 0.72 / 0.52 | 1/18 (2.13) |
| GFDLNSYGIS | VIYSDGRRTFYCDSVK | GRTAGTFDT | 0.40 / 0.27 / 0.57 / 0.69 / 0.20 / 0.93 | 1/18 (3.45) |
| GFSLNEYGIS | VIYSDGRRTFYGDTVK | GRTAGTFDS | -0.17 / -0.02 / 0.19 / -0.33 / -0.19 / -0.10 | 0/18 |
| GFNLNSYGIS | VIYSDGRRTFYVDSVK | GEAAGTFDS | 0.97 / 0.90 / 0.58 / 1.06 / 0.64 / 0.93 | 0/18 |
| GFELNSYGIS | VIYSDGRRTFYDDSVK | GKQAGTFDS | 0.53 / 0.29 / 0.80 / 0.62 / 0.45 / 0.62 | 0/18 |
| GFELNSYGIS | VIYSDGRRTFYSDSVK | GWTAGTFDS | 0.96 / -0.31 / 0.18 / -0.05 / 0.17 / -0.18 | 0/18 |
| GFELNSYGIS | VIYSDGRRTFYGDSVK | GSEAGTFDT | -0.52 / n.d. / -0.13 / n.d. / n.d. / 0.03 | 0/18 |
| GFELNSYGIS | VIYSDGRRTFYIDSVK | GRIAGTFDS | 1.39 / 2.47 / 2.18 / 0.49 / 0.28 / 0.98 | 1/18 (1.61) |
| GFDLNSYGIS | VIYSDGRRTFYIDSVK | GKEAGTFDS | 0.25 / 0.12 / -0.17 / -0.36 / -0.24 / 0.04 | 0/18 |
| GFELNNYGIS | VIYSDGRRTFYGDSVK | GQAAGTFDT | 0.69 / 0.84 / 0.66 / 0.83 / 0.33 / 0.66 | 0/18 |

Extract of 2 entries:

| CDR-H1 | CDR-H2 | CDR-H3 | log10 Kd (nM) by replicate | empty controls |
|---|---|---|---|---|
| GFELNEYGIS | VIYSDGRRTMYGDSVK | GRTAGTFDS | -0.29 / -0.01 / -0.23 / -0.25 / -0.42 / -0.22 | 0/18 |
| GFDLNSYGIS | VIYSDGRRTFYCDSVK | GRTAGTFDT | 0.40 / 0.27 / 0.57 / 0.69 / 0.20 / 0.93 | 1/18 (3.45) |

Values of this round are not directly comparable with the first-round values of the same sequences.
Nonspecific signal, from three strains lacking the peptide, appeared in 1% of pairings of all heavy chain designs, centred on 2.08 (5% of these signals below 0.84); values are not corrected for it. The control count says in how many pairings with the empty strains this scFv gave a signal, with their mean in brackets.
The authors' rule: three or more of the six replicates give a measured affinity, fewer mean a poor binder.